Reference: patent publication US11275071B2, “Sensor dyes for real-time sensing of metal ions in aqueous environments” (UWM Research Foundation, Inc., priority 2015, dated 2022)

Details: 60 μM dye from DMSO stock, 0.5 mole equivalents of metal, 0.1 M MOPS buffer, 2 mM Triton X-100

appearance of dye solution with metal: cloudy and aggregation was seen
Substance: Quinoline Azo 3-Naphthoic Acid [QAN-3A]
